No end group written: not given here.
Target: T1, human Nav1.6 (Homo sapiens, UniProt Q9UQD0)
T1 construct: expressed in transfected cells
Type: cell-based

Amino acid sequences for entries named in this document (tags omitted).
UniProt Q9UQD0, whole entry: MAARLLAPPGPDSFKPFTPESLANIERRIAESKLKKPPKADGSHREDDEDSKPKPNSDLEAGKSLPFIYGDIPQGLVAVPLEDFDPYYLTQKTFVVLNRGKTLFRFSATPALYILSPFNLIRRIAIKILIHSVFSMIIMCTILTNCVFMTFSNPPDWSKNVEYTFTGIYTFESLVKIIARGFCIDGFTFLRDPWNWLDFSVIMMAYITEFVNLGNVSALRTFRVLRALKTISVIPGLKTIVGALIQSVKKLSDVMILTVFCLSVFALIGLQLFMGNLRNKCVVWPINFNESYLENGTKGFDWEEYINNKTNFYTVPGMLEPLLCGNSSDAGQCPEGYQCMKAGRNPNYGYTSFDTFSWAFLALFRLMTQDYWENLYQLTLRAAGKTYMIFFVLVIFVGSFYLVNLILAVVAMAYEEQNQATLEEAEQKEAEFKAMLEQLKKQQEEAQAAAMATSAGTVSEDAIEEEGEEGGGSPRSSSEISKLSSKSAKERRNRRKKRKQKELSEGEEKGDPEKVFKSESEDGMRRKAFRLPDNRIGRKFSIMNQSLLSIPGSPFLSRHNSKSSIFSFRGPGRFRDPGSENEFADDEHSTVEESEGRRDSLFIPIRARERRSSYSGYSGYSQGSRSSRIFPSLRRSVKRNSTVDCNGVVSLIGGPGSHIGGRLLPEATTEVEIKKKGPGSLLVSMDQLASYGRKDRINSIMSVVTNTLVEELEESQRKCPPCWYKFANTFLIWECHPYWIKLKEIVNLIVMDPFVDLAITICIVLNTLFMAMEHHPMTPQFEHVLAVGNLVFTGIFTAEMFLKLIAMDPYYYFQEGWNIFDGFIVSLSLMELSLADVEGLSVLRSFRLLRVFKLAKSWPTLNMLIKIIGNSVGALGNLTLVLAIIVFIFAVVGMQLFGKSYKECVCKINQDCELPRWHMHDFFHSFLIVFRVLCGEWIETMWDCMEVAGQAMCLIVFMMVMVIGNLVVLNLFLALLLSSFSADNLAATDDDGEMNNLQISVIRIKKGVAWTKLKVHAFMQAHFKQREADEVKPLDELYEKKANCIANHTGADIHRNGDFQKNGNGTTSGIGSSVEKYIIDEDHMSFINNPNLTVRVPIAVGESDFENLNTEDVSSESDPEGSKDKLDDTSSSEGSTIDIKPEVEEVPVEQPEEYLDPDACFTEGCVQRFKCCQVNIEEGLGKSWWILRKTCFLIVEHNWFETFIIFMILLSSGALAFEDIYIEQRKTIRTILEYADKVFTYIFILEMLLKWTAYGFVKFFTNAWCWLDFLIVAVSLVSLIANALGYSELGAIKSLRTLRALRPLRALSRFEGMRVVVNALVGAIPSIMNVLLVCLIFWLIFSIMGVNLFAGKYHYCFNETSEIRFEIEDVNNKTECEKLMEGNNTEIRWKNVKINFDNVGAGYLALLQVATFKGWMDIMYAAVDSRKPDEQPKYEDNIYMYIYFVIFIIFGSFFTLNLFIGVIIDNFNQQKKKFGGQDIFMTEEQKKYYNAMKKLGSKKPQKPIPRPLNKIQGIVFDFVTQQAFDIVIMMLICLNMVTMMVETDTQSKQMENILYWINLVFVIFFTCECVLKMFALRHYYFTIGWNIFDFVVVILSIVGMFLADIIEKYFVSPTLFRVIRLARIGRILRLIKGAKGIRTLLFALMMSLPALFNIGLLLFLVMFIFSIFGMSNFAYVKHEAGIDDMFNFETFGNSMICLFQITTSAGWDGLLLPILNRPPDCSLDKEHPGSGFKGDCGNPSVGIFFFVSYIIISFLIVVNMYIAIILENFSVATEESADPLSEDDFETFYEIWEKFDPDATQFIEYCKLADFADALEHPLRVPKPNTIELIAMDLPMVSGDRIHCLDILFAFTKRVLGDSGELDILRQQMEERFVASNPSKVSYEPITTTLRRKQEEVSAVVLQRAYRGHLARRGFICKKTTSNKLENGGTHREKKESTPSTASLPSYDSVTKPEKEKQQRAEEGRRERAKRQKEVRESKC

Row | Substance | ratio of IC50 for Nav1.6 to IC50 for Nav1.7 (selectivity) | selectivity for Nav1.7 compared to recombinant Protoxin-II
1 | GPYCQKWMWTCDSERKCCEGMVCRLWCKKKLW-OH (cysteine pairing not given here) [NV1D12, reference compound] | about 28 fold | 
2 | GPSCQKWMQTCDAERKCCEGFVCRLWCKKKLW-OH (cysteine pairing not given here) [NV1D2773] |  | improved selectivity
